The results in this text go back to patent publication US20220133783A1 (priority 2020, published 2022).

The data set in a line: Retention in nasal passage. The conditions noted are these: from the composition applied nasally.

Regarding ethyl-N-alpha-lauroyl-L-arginate HCl, the “retention in nasal passage” value is at least 2 h.
